# Laboratory results from patent publication US20260216182A1, “PYRIDAZINE NLRP3 INHIBITOR COMPOUND, PHARMACEUTICAL COMPOSITION, AND PREPARATION METHOD THEREFOR AND USE THEREOF” (CHANGCHUN GENESCIENCE PHARMACEUTICAL CO., LTD., priority 2022, published 2026).
# Chains of the proteins cited; added tags and fusions are not shown.
# UniProt Q96P20, whole entry: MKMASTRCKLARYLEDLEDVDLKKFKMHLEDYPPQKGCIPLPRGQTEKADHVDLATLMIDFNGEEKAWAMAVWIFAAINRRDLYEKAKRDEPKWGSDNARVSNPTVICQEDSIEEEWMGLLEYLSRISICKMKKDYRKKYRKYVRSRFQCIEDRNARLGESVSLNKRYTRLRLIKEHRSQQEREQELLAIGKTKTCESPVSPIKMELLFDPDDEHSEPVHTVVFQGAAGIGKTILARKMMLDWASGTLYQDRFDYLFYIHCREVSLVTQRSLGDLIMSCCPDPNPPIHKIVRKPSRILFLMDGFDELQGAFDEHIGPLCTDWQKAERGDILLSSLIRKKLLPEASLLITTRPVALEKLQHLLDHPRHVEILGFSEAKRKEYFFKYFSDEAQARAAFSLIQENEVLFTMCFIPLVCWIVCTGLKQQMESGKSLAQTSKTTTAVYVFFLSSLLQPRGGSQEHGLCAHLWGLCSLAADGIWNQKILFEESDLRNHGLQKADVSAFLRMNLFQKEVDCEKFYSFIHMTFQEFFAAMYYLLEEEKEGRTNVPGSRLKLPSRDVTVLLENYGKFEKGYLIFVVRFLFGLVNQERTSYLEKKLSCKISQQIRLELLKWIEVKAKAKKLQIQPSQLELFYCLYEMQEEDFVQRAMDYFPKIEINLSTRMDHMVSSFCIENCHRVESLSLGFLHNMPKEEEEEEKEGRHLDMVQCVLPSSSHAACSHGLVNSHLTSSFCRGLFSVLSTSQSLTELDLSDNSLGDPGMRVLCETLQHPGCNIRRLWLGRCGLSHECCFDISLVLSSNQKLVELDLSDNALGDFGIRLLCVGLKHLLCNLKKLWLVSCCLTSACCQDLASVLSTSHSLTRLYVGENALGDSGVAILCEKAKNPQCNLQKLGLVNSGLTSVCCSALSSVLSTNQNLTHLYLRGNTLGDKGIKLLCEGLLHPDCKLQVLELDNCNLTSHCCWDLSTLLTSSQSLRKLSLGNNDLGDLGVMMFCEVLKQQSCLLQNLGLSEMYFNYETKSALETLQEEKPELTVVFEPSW
# Target: NLRP3 (Homo sapiens, UniProt Q96P20)
# Assay: IC50 of NLRP3 inhibitors in reducing IL-1β secretion by THP-1 cells (PMA, LPS, nigericin; ELISA)
# Conditions: compound + nigericin 1 h
row,SMILES,IC50
1,"Oc1cc(C(F)(F)F)ccc1-c1nnc(NC2CCCC(=C(F)F)C2O)c2cnccc12 (single isomer, unassigned)",32 nM
2,CC(C)(C#N)c1cccc(Nc2nnc(-c3ccc(Cl)cc3O)c3ccncc23)c1,98 nM
3,Oc1cc(Cl)ccc1-c1nnc(NC2CCCC(=C(F)F)C2O)c2cnccc12 (stereo not drawn),41 nM
